Data published in ChEMBL document CHEMBL6177977, “Discovery of a Potent, Selective, and Brain-Penetrant Checkpoint Kinase 1 Inhibitor, BEN-28010, for the Treatment of Glioblastoma” (J Med Chem, 2025).
Calls of active or inactive are those of the source. The calls are words filed in the database; no cut-off is given here.

Amino acid sequences for entries named in this document (tags omitted).
UniProt O96017, whole entry: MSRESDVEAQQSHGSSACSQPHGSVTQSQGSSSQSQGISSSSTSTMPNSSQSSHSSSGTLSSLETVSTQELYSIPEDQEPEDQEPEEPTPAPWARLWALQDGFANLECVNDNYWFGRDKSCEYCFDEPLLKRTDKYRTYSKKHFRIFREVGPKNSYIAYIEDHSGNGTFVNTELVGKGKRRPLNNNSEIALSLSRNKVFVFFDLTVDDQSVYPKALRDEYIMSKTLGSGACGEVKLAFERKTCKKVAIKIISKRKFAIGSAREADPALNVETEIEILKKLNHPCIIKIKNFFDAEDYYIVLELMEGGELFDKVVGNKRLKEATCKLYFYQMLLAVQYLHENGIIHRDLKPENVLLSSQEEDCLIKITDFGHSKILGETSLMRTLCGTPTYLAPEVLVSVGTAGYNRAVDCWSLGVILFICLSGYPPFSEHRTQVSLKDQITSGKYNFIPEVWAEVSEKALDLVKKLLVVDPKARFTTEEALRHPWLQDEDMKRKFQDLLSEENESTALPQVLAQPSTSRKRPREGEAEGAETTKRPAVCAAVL

Tests used:
[1] = molecular target: T1, Serine/threonine-protein kinase Chk1 (Homo sapiens) (UniProt O14757); settings: Mus musculus; NOD/SCID; LN-229; dose 100.0 mg/kg, route po, time 48.0 hrs
T1 sequence (whole entry): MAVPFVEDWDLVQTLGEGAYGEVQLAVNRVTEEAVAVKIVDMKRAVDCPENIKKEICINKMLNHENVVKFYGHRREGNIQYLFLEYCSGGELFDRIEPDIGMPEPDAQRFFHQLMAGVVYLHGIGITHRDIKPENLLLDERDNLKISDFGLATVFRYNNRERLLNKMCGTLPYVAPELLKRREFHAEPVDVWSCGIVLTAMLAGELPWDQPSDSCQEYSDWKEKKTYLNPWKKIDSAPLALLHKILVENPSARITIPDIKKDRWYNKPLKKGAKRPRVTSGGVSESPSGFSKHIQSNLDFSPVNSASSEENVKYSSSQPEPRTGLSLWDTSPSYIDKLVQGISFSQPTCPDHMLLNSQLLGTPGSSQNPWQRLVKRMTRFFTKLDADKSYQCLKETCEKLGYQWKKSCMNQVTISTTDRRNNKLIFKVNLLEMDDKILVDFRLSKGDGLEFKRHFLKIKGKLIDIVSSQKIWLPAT

[2] = molecular target: T1, Serine/threonine-protein kinase Chk1 (Homo sapiens); settings: Mus musculus; NOD/SCID; LN-229; dose 100.0 mg/kg, route po, time 48.0 hrs; remark: listed apart in the source
[3] = molecular target: T1, Serine/threonine-protein kinase Chk1 (Homo sapiens); settings: Mus musculus; NOD/SCID; LN-229; dose 10-100 mg/kg, route po, time 48.0 hrs
[4] = molecular target: T1, Serine/threonine-protein kinase Chk1 (Homo sapiens); settings: Mus musculus; NOD/SCID; LN-229; dose 10-100 mg/kg, route po, time 3-48 hrs
[5] = molecular target: T1, Serine/threonine-protein kinase Chk1 (Homo sapiens); settings: Mus musculus; LN-229; dose 10-100 mg/kg, route po, time 3-48 hrs
[6] = molecular target: Serine/threonine-protein kinase Chk2 (Homo sapiens, UniProt O96017); assay: biochemical

With `CN(C)[C@@H]1CCN(c2ccc(-n3cnc(Nc4cnc(C#N)cn4)c3)cc2)C1` the inhibition [1] was “Active”, the inhibition [2] was “Active” and the inhibition [3] was “Dose-dependent-effect”. For the same molecule, the inhibition [4] was “Dose-dependent-effect”, the inhibition [5] was “Time-dependent-effect” and the IC50 [6] was 1790 nM.
